One molecule from ChEMBL document CHEMBL1145905, “Design and synthesis of novel dimeric morphinan ligands for kappa and micro opioid receptors” (J Med Chem, 2003) can be followed below.

Chains of the proteins cited; added tags and fusions are not shown. Lines headed by an entry give the natural chain unless they say otherwise; changes in a name come on top.
UniProt P41145: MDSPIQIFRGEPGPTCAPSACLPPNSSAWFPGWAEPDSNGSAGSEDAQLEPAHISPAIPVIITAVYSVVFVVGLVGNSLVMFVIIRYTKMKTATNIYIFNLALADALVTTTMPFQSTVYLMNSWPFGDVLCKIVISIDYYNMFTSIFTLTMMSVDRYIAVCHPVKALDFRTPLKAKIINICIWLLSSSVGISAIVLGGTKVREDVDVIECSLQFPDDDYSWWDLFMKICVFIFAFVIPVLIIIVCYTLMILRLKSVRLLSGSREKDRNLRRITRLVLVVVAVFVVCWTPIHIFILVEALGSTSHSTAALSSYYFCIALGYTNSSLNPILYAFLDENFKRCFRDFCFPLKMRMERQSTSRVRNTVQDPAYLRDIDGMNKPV

The target of the test is Kappa-type opioid receptor (Homo sapiens, UniProt P41145). Briefly: Percent maximal stimulation in stimulating [35S]-GTP-gamma S binding mediated by the Opioid receptor kappa 1 in chinese Hamster Ovary (CHO) cell membranes was determined. Format: functional.

On to `Oc1ccc2c(c1)[C@@]13CCCC[C@H]1[C@@H](C2)N(CC1CC1)CC3` [CYCLORPHAN], for which the Emax was 90%.
